Measured values from ChEMBL document CHEMBL2384950, “2-(3-Fluoro-4-methylsulfonylaminophenyl)propanamides as potent TRPV1 antagonists: structure activity relationships of the 2-oxy pyridine C-region” (Eur J Med Chem, 2013).

Sequences of proteins named here, by UniProt entry; tags and fusion partners are left off.
UniProt Q8NER1, whole entry: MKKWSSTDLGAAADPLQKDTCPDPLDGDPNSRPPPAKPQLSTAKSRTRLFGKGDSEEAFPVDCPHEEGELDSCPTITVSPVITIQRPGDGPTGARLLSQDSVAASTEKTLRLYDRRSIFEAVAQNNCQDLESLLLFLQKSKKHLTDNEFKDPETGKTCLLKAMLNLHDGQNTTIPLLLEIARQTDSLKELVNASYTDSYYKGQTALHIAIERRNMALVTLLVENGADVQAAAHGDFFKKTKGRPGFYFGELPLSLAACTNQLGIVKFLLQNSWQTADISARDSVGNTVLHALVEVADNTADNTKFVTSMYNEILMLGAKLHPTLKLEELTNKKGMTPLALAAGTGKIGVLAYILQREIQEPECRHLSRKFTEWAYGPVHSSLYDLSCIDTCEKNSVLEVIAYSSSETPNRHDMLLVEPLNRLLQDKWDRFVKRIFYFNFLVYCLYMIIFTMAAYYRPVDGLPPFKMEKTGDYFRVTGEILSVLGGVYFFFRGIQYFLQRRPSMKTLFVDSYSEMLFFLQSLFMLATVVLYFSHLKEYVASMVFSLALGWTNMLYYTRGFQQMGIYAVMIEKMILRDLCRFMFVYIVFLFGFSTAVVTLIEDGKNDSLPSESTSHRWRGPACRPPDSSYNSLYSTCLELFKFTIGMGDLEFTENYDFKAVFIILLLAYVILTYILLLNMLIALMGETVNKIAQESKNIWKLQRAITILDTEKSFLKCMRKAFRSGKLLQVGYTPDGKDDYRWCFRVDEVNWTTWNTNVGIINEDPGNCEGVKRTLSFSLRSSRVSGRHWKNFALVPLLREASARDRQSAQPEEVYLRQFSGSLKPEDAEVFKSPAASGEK

Molecular target: Transient receptor potential cation channel subfamily V member 1 (Homo sapiens, UniProt Q8NER1)
Assay: Antagonist activity at human TRPV1 expressed in CHOK1 cells assessed as inhibition of pH 6 to 6.3-induced activity by FLIPR assay
Type: cell-based, CHO-K1

pIC50: 7.52
SMILES: CCCCOc1nc(C(F)(F)F)ccc1CNC(=O)C(C)c1ccc(NS(C)(=O)=O)c(F)c1 (stereo unspecified)

pIC50: −log10 of the molar value.
